{"source": "paper PMC9103596", "about": "“The inhibitory effect of boric acid on hypoxia-regulated tumour-associated carbonic anhydrase IX” (Journal of Enzyme Inhibition and Medicinal Chemistry, 2022)", "key": {"[1]": {"tested_on": "CA IX levels in HT29 cells", "conditions": "treated at IC50 concentration for 24 h, ELISA"}, "[2]": {"tested_on": "CA IX levels in A375 cells", "conditions": "treated at IC50 concentration for 24 h, ELISA"}}, "note": "Read-outs that look alike come from different tables or passages of the source.", "data": [{"compound": "CC(=O)Nc1nnc(S(N)(=O)=O)s1", "note": "[AAZ, acetazolamide, reference compound]", "values": [{"measurement": "CA IX levels compared to control", "setting": "[1]; HT29 hypoxic cell cultures", "value": "decrease"}, {"measurement": "CA IX levels compared to control", "setting": "[1]; HT29 normoxic cell cultures", "value": "significantly reduced"}, {"measurement": "CA IX levels compared to control", "setting": "[2]; A375 hypoxic cell cultures", "value": "significantly reduced"}, {"measurement": "CA IX levels compared to control", "setting": "[2]; A375 normoxic cell cultures", "value": "significantly reduced"}]}]}
